Screens (PubChem BioAssay)
Only some compounds are listed: those with a hit (about 16% of all), similar ones and a draw of the others.
miR-21 reporter: miR-21 reporter, rising signal | AID 2288 | HeLa miR-21 FLuc reporter, luciferase, 48 h | 340,000 tested, under 10 active | Potency, µM (doses to about 38.3 µM), for inactives: at the top dose reporter change, positive = more light; active = well fitted rising curve with a large enough effect; inconclusive = small, poorly fitted or top-dose-only effect; inactive = no such curve, though single readings can be large or run the other way;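 note: % of control where 0% means no effect; miR-21 action dims this reporter so a rising signal means less miR-21 action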
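Using DMEM plus 10% FBS, HeLa miR-21-FLuc cells are incubated with test compounds (final up to about 40uM) for 48 hours; firefly luciferase signal is then imaged following reagent-mediated lysis.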
uPA surface inh: inhibitors of cell surface uPA generation; cell surface uPA generation assay, qHTS; Potency, µM (doses to about 38.3 µM), for the others: at the top dose activity change, negative = inhibition, actives largely listed as inhibitors; hit rate 0.31% among 330,000; AID 540303; active = well fitted inhibition curve with a large enough effect; inconclusive = small, poorly fitted or top-dose-only effect; inactive = no such curve, though single readings can be large or run the other way; tested in mouse RAW 264.7 cells; note: potency is the fitted concentration of half-maximal effect; % is set by controls: 0 for no effect and ±100 for the full control effect; nearly all actives have a fitted effect of over 55% in size
TDP1 inh: blocks human tyrosyl-DNA phosphodiesterase 1 | Q9NUW8 | recombinant TDP1, AlphaScreen DNA substrate cleavage | Potency, µM (doses to about 130 µM), for the others: at the top dose activity change, negative = inhibition, usual class: inhibitors | hit rate 0.28% among 350,000; note: potency is the fitted concentration of half-maximal effect; % is set by controls: 0 for no effect and ±100 for the full control effect; nearly all actives have a fitted effect of over 40% in size
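E. coli-derived human Tdp1, 1 nM final. Cpd preinc 15 min RT; substrate 15 nM final, 5 min RT; AS bead mix 10 ug/ml final, 10 min RT. Signal loss = tyrosine-FITC cleavage. No-enzyme wells = max signal.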
DT40 TDP1 CPT: DT40-hTDP1 cell growth loss with CPT; chicken DT40 Tdp1-/-;hTDP1 cells + 20 nM CPT, ATP luminescence, 48 h; Potency, µM (top dose mostly 46.2 µM), without a hit: at the top dose activity change, negative = growth inhibition, actives largely listed as inhibitors; hit rate 12% among 420,000; AID 686979; note: potency is the fitted concentration of half-maximal effect; % is set by controls: 0 for no effect and ±100 for the full control effect; nearly all actives have a fitted effect of over 55% in size
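Cell growth measured by CellTiter-Glo luminescence after a minimum 48 h, 37 C compound exposure with 20 nM CPT in Tdp1-knockout DT40 cells stably expressing hTDP1, seeded 400/well; qHTS titration format.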
DT40 TDP1 no CPT: qHTS for Inhibitors of human tyrosyl-DNA phosphodiesterase 1 (TDP1): qHTS in cells in absence of CPT. hit rate 15% among 420,000. Potency, µM (top dose mostly 46.2 µM), without a hit: top-dose activity change, negative = growth inhibition, actives largely listed as inhibitors. AID 686978, 2013. DT40 Tdp1-/- hTDP1 cells, no CPT, ATP luminescence, 48 h; note: potency is the fitted concentration of half-maximal effect; % is set by controls: 0 for no effect and ±100 for the full control effect; nearly all actives have a fitted effect of over 55% in size
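No-CPT arm: Tdp1-/-;hTDP1 DT40 cells (400/well) plus compounds, incubated ≥48 hr at 37 °C. Readout CellTiter-Glo luminescence.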
The depositor's hits bear a star; ? = inconclusive; / = no result given; [ ] = another dose, or the depositor's remark. Unless noted, calls come from the whole dose curve; as a rule, active = well fitted curve in the direction sought with a large enough effect; inconclusive = small, poorly fitted or top-dose-only effect, or another doubt; inactive = no such curve, though single readings can be large; an effect the other way counts as inactive or inconclusive.

Values in the order – miR-21 reporter	uPA surface inh	TDP1 inh	DT40 TDP1 CPT	DT40 TDP1 no CPT
1	COc1cc2ccccc2cc1C(=O)Nc1cccnc1
→ -50%	-11%	2%	-11%	?
2	COc1cc2cc(C(=O)Nc3ccccc3)c(N)nc2cc1OC
→ -9%	2%	0%	?	21µM*
3	O=C(NC1CCCCC1)N1CCCC(c2nc(-c3ccc(S(=O)(=O)N4CCCC4)cc3)no2)C1 (centres undefined)
→ -2%	-1%	2%	?	?
4	COc1cccc(O)c1CN1CCCC(C(=O)c2cccc(C(F)(F)F)c2)C1 (centres undefined)
→ 1%	4%	0%	16µM*	23µM*
5	COc1cccc(OC)c1CN1CCCC(C(=O)c2ccccc2SC)C1 (centres undefined)
→ 28%	-10%	-7%	16µM*	21µM*
6	COCc1cc(CN2CCCC(C(=O)c3cccc(C(F)(F)F)c3)C2)ccc1OC (centres undefined)
→ -3%	4%	0%	?	?
7	COc1ccc(C(=O)C2CCCN(Cc3cccc4c3OCO4)C2)cc1OC (centres undefined)
→ 1%	-1%	/	?	9.2µM*
8	COCCC(=O)N1CCCC(C(=O)c2ccccc2SC)C1 (centres undefined)
→ /	-1%	/	-26%	-39%
9	COc1ccc(C(=O)C2CCCN(Cc3ccc4nonc4c3)C2)cc1OC (centres undefined)
→ 16%	4%	2%	-19%	-18%
10	CCCCNC(=O)N1CCCC(C(=O)c2cc(C)c(OC)c(C)c2)C1 (centres undefined)
→ 13%	2%	/	?	16µM*
11	CCC(C)NC(=O)Cn1c(COc2ccc(Cl)cc2Cl)nc2ccccc21 (centres undefined)
→ -72%	-6%	0%	?	?
12	O=C(NC1CS(=O)(=O)CC1NCc1ccccc1)c1ccccc1 (centres undefined)
→ -4%	2%	2%	-14%	1%
13	O=C(Cn1cnc2c(cnn2-c2ccc(Cl)cc2)c1=O)N1CCN(c2ccccc2)CC1
→ 1%	-1%	5%	2%	?
14	O=C(c1ccc2c(c1)OCO2)C1CCCN(Cc2ccccc2OC(F)F)C1 (centres undefined)
→ 2%	1%	0%[56.1 µM]	16µM*	?
15	COc1c(C)cc(C(=O)C2CCCN(Cc3cccc4nccnc34)C2)cc1C (centres undefined)
→ -2%	-2%	0%	?	16µM*
16	COc1ccc(C(=O)C2CCCN(Cc3c(O)cccc3OC)C2)cc1OC (centres undefined)
→ 7%	4%	/	?	7.3µM*
17	COc1cccc(CN2CCCC(C(=O)c3ccc4c(c3)OCO4)C2)c1OC (centres undefined)
→ -3%	4%	3%	?	?
18	O=C(c1cccc(C(F)(F)F)c1)C1CCCN(Cc2cccc(OCCO)c2)C1 (centres undefined)
→ 2%	2%	/	?	10µM*
19	O=C(c1cccc(C(F)(F)F)c1)C1CCCN(C(=O)CCc2cnccn2)C1 (centres undefined)
→ -2%	-6%	3%	3%	?
20	Cc1ccc(S(=O)(=O)Nc2c(C(=O)O)[nH]c3ccccc23)cc1C
→ -2%	1%	7%	2%	23%

Part of the list above, with tabs.
item	molecule	miR-21 reporter	uPA surface inh	TDP1 inh	DT40 TDP1 CPT	DT40 TDP1 no CPT
11	CCC(C)NC(=O)Cn1c(COc2ccc(Cl)cc2Cl)nc2ccccc21 (centres undefined)	-72%	-6%	0%	?	?
12	O=C(NC1CS(=O)(=O)CC1NCc1ccccc1)c1ccccc1 (centres undefined)	-4%	2%	2%	-14%	1%
13	O=C(Cn1cnc2c(cnn2-c2ccc(Cl)cc2)c1=O)N1CCN(c2ccccc2)CC1	1%	-1%	5%	2%	?

(continued)
Values in the order – miR-21 reporter	uPA surface inh	TDP1 inh	DT40 TDP1 CPT	DT40 TDP1 no CPT
21	O=C(Cn1nnc(-c2ccccc2)n1)NC1CCS(=O)(=O)C1 (centres undefined)
→ /	1%	/	1%	-6%
22	CC(Oc1ccccc1)C(=O)NC1CCN(Cc2ccccc2)CC1 (centres undefined)
→ -3%	3%	-1%	-26%	-6%
23	O=C(c1cccc(C(F)(F)F)c1)C1CCCN(Cc2cccn2-c2ccccn2)C1 (centres undefined)
→ 28%	-9%	10%	15µM*	15µM*
24	CCOc1cccc(CN2CCCC(C(=O)c3cccc(C(F)(F)F)c3)C2)c1O (centres undefined)
→ 5%	5%	0%	-1%	-6%
